The record followed here is PubChem BioAssay AID504845 (National Center for Advancing Translational Sciences (NCATS), 2011).

Chains of the proteins cited; added tags and fusions are not shown.
UniProt P49798, whole entry: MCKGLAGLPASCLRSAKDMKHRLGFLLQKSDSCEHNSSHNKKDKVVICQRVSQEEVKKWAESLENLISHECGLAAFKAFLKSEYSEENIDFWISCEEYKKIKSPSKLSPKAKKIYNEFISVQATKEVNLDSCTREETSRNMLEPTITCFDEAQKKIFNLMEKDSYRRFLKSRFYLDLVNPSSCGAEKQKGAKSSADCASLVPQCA

The list shows a part of the results, in another mix than the full data. Records with an inconclusive call do not appear. Activity calls are given as the source filed them. The call rests on the fitted dose curve; in most records, active means well fitted inhibition curve with a large enough effect; inconclusive means small, poorly fitted or top-dose-only effect; inactive means no such curve, though single readings can be large or run the other way.
On the % scale 0 is the no-effect control and ±100 the full control effect.

The target of the test is Regulator of G-protein signaling 4 (Homo sapiens) (UniProt P49798). The experiment in a line: Inhibitors of Regulator of G Protein Signaling (RGS) 4: qHTS. Further: nearly all actives have a fitted effect of over 75% in size. As to conditions: Transcreener GDP fluorescence polarization, RGS4-accelerated GTP hydrolysis; at 114 µM (top of the series) unless noted. An excerpt: G-protein-coupled receptors (GPCRs) are well-established targets for drug discovery and development. Members of the "regulator of G-protein signaling" (RGS)-protein superfamily have recently emerged as critical modulators of specific GPCR signaling pathways. […] Combining specific RGS domain inhibitors with existing GPCR agonists should potentiate cellular responses and could also increase the specificity of action of existing therapeutics. Small molecule modulators of RGS domain activity should also have clinical utility in inhibiting or potentiating the actions of endogenous GPCR agonists. In particular, the diversity of RGS proteins with highly localized and dynamically regulated distributions in the human brain makes this family of proteins attractive targets for pharmacotherapy of central nervous system (CNS) disorders such as Parkinson's disease, schizophrenia, and anxiety.
This assay was used to screen the NIH Molecular Libraries Small Molecule Repository (MLSMR) in order to identify a small molecule that inhibits RGS4.
NIH Chemical Genomics Center [NCGC]
NIH Molecular Libraries Probe Centers Network [MLPCN]
Assay Submitter (PI): David Siderovski, University of North Carolina Chapel Hill (School of Medicine)
Two microliters of 500nM (2x working concentration) is dispensed into black medium-binding solid-bottom Kalypsys plates. Then with the Kalypsys pintool 23nl of control and compounds are transferred; the control compound is […] CCG-4986 (working concentration). After a 10 minute incubation at room temperature 2ul of antibody is added with the Kalypsys dispenser; (-)RGS4/Transcreener GDP solution in columns 3 and 4 which consisted of 10nM (2x working concentration) Alexa633, 20uM GTP, and 20 ug/ml GDP antibody and (+)RGS4/Transcreener GDP solution in columns 1,2, and 5 to 48 which consists of 900nM RGS4 (2x working concentration), 10nM Alexa633, 20 ug/ml GDP antibody. The plate is centrifuged at 1000 RPM for 15 seconds to remove any possible bubbles and then incubated for 5 minutes at ambient room temperature. An initial fluorescent polarization read (620 nm/688 nm) is performed on the Envision before the plate is incubated for 90 minutes at 30 deg C at a relative humidity of 80%. The plate is once more centrifuged at 1000 RPM for 15 seconds and another Envision fluorescent polarization (620 nm/688 nm) read is carried out.
A general note: Quantitative high-throughput screening tests each substance at several concentrations.
In the case of `CCCOc1ccc(C(=O)NCC2(N(C)C)CCCCC2)cc1OC`, the activity change, negative = inhibition was inactive: -10.5%.
The value for `COc1ccc(CN(CCCl)CCCl)cc1Cl` was inactive: -16.1%; that for `O=[N+]([O-])c1cc([N+](=O)[O-])c(OC2CCCCC2O)c([N+](=O)[O-])c1` (stereo not drawn) was inactive: -19%; that for `CN(C)c1cccc(C(=O)NCC2(N3CCCCC3)CCCCC2)c1` was inactive: 0.282%.
The value for `CC(C)c1ccc(NC2CCN(C(=O)OC(C)(C)C)CC2)cc1` was inactive: -15.5%; that for `COc1cc(OC)c(C(=O)NCC2(N(C)C)CCCCC2)cc1OC` was inactive: 25.1%; that for `O=C(NCC1(N2CCOCC2)CCCCC1)c1cc(F)c(F)cc1Cl` was inactive: -11.7%.
On to `CCCOc1cccc(C(=O)NCC2(N3CCOCC3)CCCCC2)c1`, for which the activity change, negative = inhibition was inactive: 36.8%.
The value for `O=C(NCC1(N2CCCCC2)CCCCC1)c1cccc(C(F)(F)F)c1` was inactive: -12.2%.
Under `O=[N+]([O-])c1cc([N+](=O)[O-])c(NCC2CCS(=O)(=O)C2)c([N+](=O)[O-])c1` (stereo not drawn) stands inactive: -8.41%; under `CN1CCN(CCOC(=O)C(O)(c2ccccc2)c2ccccc2)CC1`, inactive: -4.7%; under `CC(C)c1ccc(C(=O)NCC2(N3CCOCC3)CCCCC2)cc1`, inactive: -7.69%.
For the compound `COc1ccc(NC2CCN(C(=O)OC(C)(C)C)CC2)cc1`, the activity change, negative = inhibition was inactive: 8.34%.
Consider `COc1cc(C(=O)NCC2(N3CCCCC3)CCCCC2)ccc1OC(F)F`, for which the activity change, negative = inhibition is inactive: -13.1%.
Under `O=C(NCC1(N2CCOCC2)CCCCC1)c1cc(=O)[nH]c2ccccc12` stands inactive: 19.5%; under `O=C(NCC1(N2CCCCC2)CCCCC1)c1ccc(OC(F)F)cc1`, inactive: -8.72%.
The value for `CSc1ccc(C(=O)NCC2(N3CCOCC3)CCCCC2)cc1` was inactive: 7.12%; that for `CCOc1ccc(C(=O)NCC2(N3CCOCC3)CCCCC2)cc1` was inactive: 7.21%.
Take `O=C(NCC1(N2CCCCC2)CCCCC1)c1cccc([N+](=O)[O-])c1`: the activity change, negative = inhibition was inactive: 21.3%.
`CCN1CCC(Nc2ccc(Cl)cc2)CC1`: the activity change, negative = inhibition is inactive: -21.7%.
The value for `N#CC1(Nc2ccccc2)CCN(CCc2ccccc2)CC1` was inactive: -25.8%; that for `CCOC(=O)N1CCC(Nc2cccc(C)c2)CC1` was inactive: 4.92%; that for `COc1cc(C(=O)NCC2(N(C)C)CCCCC2)ccc1OC(F)F` was inactive: 26.1%.
Turning to `CCOc1ccc(C)cc1CN(CCCl)CCCl`, the activity change, negative = inhibition was inactive: 8.68%.
As for `O=C(NCC1(N2CCOCC2)CCCCC1)c1ccc(Cl)cc1`, the activity change, negative = inhibition was inactive: 8.03%.
The value for `O=C1CCN(Cc2ccccc2)CC1` was inactive: 11.2%; that for `O=P1(N(CCCl)CCCl)SCCCS1` was inactive: -1.12%; that for `CCCCOc1ccc(C(=O)NCC2(N3CCOCC3)CCCCC2)cc1` was inactive: 15.7%.
In the case of `O=C(NCC1(N2CCCCC2)CCCCC1)c1ccc(F)cc1`, the activity change, negative = inhibition is inactive: 12%.
The value for `COc1ccc(NC2CCN(CCc3ccccc3)CC2)c(OC)c1` was inactive: -7.52%.
Take `CCOC(=O)N1CCC(Nc2ccc(F)cc2)CC1`: the activity change, negative = inhibition is inactive: 10.9%.
For `COc1ccccc1C(=O)NCC1(N2CCOCC2)CCCCC1`, the activity change, negative = inhibition was inactive: 16.7%.
Under `O=C(NCC1(N2CCOCC2)CCCCC1)c1cc2ccccc2o1` stands inactive: 8.47%.
As for `O=C(NCC1(N2CCCCC2)CCCCC1)c1ccc(Cl)nc1`, the activity change, negative = inhibition is inactive: -17.4%.
`Cc1cc(C)cc(N(C(=O)c2ccccc2)C2CCN(C(=O)OC(C)(C)C)CC2)c1`: the activity change, negative = inhibition was inactive: -3.15% [at 56.9 µM].
`CCOC(=O)N1CCC(Nc2ccc(OC)cc2)CC1`: the activity change, negative = inhibition is inactive: -10.9%.
In the case of `N#CC1(Nc2ccccc2)CCN(Cc2ccccc2)CC1`, the activity change, negative = inhibition was inactive: 42.2%.
The value for `O=C(NCC1(N2CCCCC2)CCCCC1)c1ccc(Cl)s1` was inactive: -5.33%; that for `O=C(OC1CN2CCC1CC2)C1c2ccccc2Oc2ccccc21` (stereo not drawn) was inactive: -3.66%.
As for `COc1ccc(Cl)cc1C(=O)NCC1(N2CCOCC2)CCCCC1`, the activity change, negative = inhibition was inactive: -11.2%.
The value for `O=C1C(O)=C([N+](=O)[O-])C(=O)C(O)=C1[N+](=O)[O-]` was inactive: 0.487%.
Under `O=C(NCC1(N2CCCCC2)CCCCC1)c1ccc(=O)[nH]c1` stands inactive: -5.37%; under `O=C(NCC1(N2CCCCC2)CCCCC1)c1cccs1`, inactive: 24%; under `COc1ccc(C(=O)NCC2(N3CCCCC3)CCCCC2)cc1`, inactive: -8.34%.
The value for `CC(C)(C)OC(=O)N1CCC(N(C(=O)c2ccccc2)c2ccc(F)cc2)CC1` was inactive: 0.704%; that for `COc1ccc(C(=O)NCC2(N3CCCCC3)CCCCC2)c(OC)c1OC` was inactive: 15.2%; that for `CSc1ccccc1C(=O)NCC1(N2CCCCC2)CCCCC1` was inactive: 1.4%.
Consider `Cc1cccc(NC2(C#N)CCN(Cc3ccccc3)CC2)c1`, for which the activity change, negative = inhibition was inactive: 0.798%.
